According to patent US7235238 (IMMUNEX, dated 2007):

Assays:
[1] = target: T1, soluble type I IL-1RI/Fc fusion protein (extracellular domain of human type I IL-1R fused to the Fc region … (human, UniProt P14778 18-336)); experiment: BIAcore; Fc fusion captured by anti-human IgG Fc serum
T1 construct: extracellular domain; Positive control in the BIAcore assay; also called human type I IL-1R/Fc fusion protein; not shown: Fc region polypeptide (human IgG1, as for 2F1/Fc)
T1 sequence (looked up): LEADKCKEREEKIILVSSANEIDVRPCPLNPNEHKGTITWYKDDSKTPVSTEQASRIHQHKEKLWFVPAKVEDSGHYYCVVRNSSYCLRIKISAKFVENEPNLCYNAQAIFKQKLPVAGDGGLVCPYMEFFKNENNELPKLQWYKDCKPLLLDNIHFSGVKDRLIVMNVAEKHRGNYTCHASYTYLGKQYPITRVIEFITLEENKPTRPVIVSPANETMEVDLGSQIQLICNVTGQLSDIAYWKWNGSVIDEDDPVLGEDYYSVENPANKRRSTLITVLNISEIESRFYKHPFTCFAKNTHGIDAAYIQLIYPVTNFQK
From the text: (§1) A BIAcore biosensor (Pharmacia Biosensor AB, Piscataway, N.J.) was used to examine binding of IL-1 ligands to the human 2F1/Fc fusion protein, using procedures essentially as described in Arend et al. (*J. Immunol.* 153: 4766–4774, 1994). Briefly, a goat anti-human IgG serum directed against the Fc region (Jackson Immunoresearch Laboratories, Inc., West Grove, Pa.), covalently coupled to the dextran matrix of a hydrogel chip, was used to capture the human 2F1/Fc protein. The 2F1/Fc fusion protein thus was immobilized on the BIAcore chip. The three IL-1 ligands, at several different concentrations, were reacted with the captured protein, and the change of mass per unit area over time was measured.

[2] = target: T2, 2F1/Fc soluble fusion protein (human 2F1 extracellular domain joined to the Fc region of a human IgG1) (human, UniProt Q13478 20-329); experiment: BIAcore; 2F1/Fc captured by anti-human IgG Fc serum, ligand at several different concentrations
T2 construct: Captured on the BIAcore chip by goat anti-human IgG Fc serum; also called human 2F1/Fc fusion protein; 2F1/Fc protein; not shown: Fc region of a human IgG1; made by procedures analogous to Baum et al. 1994
T2 sequence: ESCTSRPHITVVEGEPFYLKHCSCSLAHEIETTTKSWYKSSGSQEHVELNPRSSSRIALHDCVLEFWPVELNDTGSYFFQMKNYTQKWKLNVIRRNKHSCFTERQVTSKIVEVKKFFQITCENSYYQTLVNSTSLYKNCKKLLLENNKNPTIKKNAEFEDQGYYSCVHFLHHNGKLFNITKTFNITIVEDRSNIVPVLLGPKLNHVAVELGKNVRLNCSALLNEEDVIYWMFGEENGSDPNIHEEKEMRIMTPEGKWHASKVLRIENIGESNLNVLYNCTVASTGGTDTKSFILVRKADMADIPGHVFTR
From the text: as §1

B1: human IL-1 receptor antagonist protein (ligand, UniProt P18510 26-177, looked up)
chain: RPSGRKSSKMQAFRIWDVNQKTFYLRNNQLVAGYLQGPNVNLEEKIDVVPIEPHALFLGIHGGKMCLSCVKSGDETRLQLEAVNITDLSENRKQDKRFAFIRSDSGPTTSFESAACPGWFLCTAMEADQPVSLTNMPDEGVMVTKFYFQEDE
notes: also called IL-1ra
- binding result [1]: binds
- binding result [2]: no binding
